These results are taken from PubChem BioAssay AID588492 (Sanford-Burnham Center for Chemical Genomics, 2011).

Only a part is listed here, and it is no random draw. Some results for these compounds are left out of this collection, so the calls shown say nothing about other tests. Calls of active or inactive are those of the source.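 The calls were made as follows: active = compounds giving at least 50% protection of heart cells from peroxide-induced death in the single-dose screen, raw or plate-pattern-corrected value; inactive = the rest.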

This assay can be described thus: cardioprotection against H2O2-induced cell death, primary screen, uHTS, H9c2 cells, ATPLite luminescence (AID 588492).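 Also: 0% = DMSO wells with peroxide and 100% = DMSO wells without peroxide.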 The conditions noted are these: H9c2 cardiomyocytes, H2O2 injury protection, 2 h, at 20 µM, stronger effect = higher value.
For `CN(C)C1(CNC(=O)c2ccc(Br)cc2)CCCCC1`, the protection from H2O2 cell death was inactive: -2.2%.
To `COc1cc(C(=O)NCC2(N(C)C)CCCCC2)c([N+](=O)[O-])cc1OC` belongs inactive: 0.3%; to `COc1ccc(Cl)cc1C(=O)NCC1(N(C)C)CCCCC1`, inactive: 3.3%; to `COc1cccc(C(=O)NCC2(N3CCCCC3)CCCCC2)c1`, inactive: -1%.
As to `O=C(NCC1(N2CCCCC2)CCCCC1)c1cccc(Cl)c1`, the protection from H2O2 cell death was inactive: 2.2%.
To `O=C(OC1CN2CCC1CC2)C(CO)(c1ccccc1)c1ccccc1` (stereo unspecified) belongs inactive: 4.8%; to `COc1ccc(Br)c(C(=O)NCC2(N3CCCCC3)CCCCC2)c1`, inactive: 5.9%; to `C=C(C)C#CC(O)(C(=O)OC1CCN(C)CC1)c1ccccc1` (stereo unspecified), inactive: -6.3%.
The same measure for `CN(C)c1cccc(C(=O)NCC2(N(C)C)CCCCC2)c1`: inactive: 4.4%; for `O=C(OCCN1CCCC1)C(O)(c1ccccc1)c1ccccc1`: inactive: 4%.
To `CC(C)Oc1ccc(C(=O)NCC2(N(C)C)CCCCC2)cc1` belongs inactive: -0.2%; to `O=C(NCC1(N2CCCCC2)CCCCC1)c1cc([N+](=O)[O-])ccc1Cl`, inactive: -8.3%.
As for `CN1[C@@H]2CC[C@H]1CC(OC(=O)C(O)(c1ccccc1)c1ccccc1)C2` (stereo partly specified), the protection from H2O2 cell death is inactive: 3.5%.
The same measure for `CC(C)N1C(=O)CC2(CCN(CCOC(=O)C(O)(c3ccccc3)c3ccccc3)CC2)C1=O`: inactive: 3.3%; for `COc1cc(SC)ccc1C(=O)NCC1(N(C)C)CCCCC1`: inactive: 7.5%.
With `CCN(CC)CC(C)C(C)OC(=O)C(O)(c1ccccc1)c1ccccc1` (stereo unspecified), the protection from H2O2 cell death is inactive: 17.6%.
As for `Cc1ccc(C(=O)NCC2(N3CCCCC3)CCCCC2)cc1`, the protection from H2O2 cell death is inactive: -1.1%.
The same measure for `CN(C)c1ccc(C(=O)NCC2(N(C)C)CCCCC2)cc1`: inactive: 12.2%.
As to `CN(C)C1CCCC1OC(=O)C(O)(c1ccccc1)c1ccccc1` (stereo unspecified), the protection from H2O2 cell death is inactive: 3.2%.
Take `Cc1ccccc1C(=O)NCC1(N2CCCCC2)CCCCC1`: the protection from H2O2 cell death is inactive: -0.2%.
To `O=C(NCC1(N2CCCCC2)CCCCC1)c1cc(F)c(F)cc1Cl` belongs inactive: 2.7%; to `C=CCN1CCN(CCOC(=O)C(O)(c2ccccc2)c2ccccc2)CC1`, inactive: 8.2%; to `O=C(NCC1(N2CCCCC2)CCCCC1)c1cccc(Br)c1`, inactive: -2.6%.
To `CCN1CCCC(OC(=O)C2(O)c3ccccc3C=Cc3ccccc32)C1` (stereo unspecified) belongs inactive: 12.7%; to `Cc1cc(C(=O)NCC2(N3CCCCC3)CCCCC2)ccc1[N+](=O)[O-]`, inactive: 0.7%; to `COc1ccc(C(=O)NCC2(N(C)C)CCCCC2)cc1`, inactive: 3.3%.
